Experimental findings from patent publication US20250115597A1, “TYK2 INHIBITORS AND COMPOSITIONS AND METHODS THEREOF” (LYNK PHARMACEUTICALS CO. LTD., priority 2021, published 2025) are described below.

By UniProt entry, the sequences of proteins in these tests, tags left out. Where a name states a change or a piece, a line headed by the entry shows the natural chain unless it says otherwise.
UniProt O60674: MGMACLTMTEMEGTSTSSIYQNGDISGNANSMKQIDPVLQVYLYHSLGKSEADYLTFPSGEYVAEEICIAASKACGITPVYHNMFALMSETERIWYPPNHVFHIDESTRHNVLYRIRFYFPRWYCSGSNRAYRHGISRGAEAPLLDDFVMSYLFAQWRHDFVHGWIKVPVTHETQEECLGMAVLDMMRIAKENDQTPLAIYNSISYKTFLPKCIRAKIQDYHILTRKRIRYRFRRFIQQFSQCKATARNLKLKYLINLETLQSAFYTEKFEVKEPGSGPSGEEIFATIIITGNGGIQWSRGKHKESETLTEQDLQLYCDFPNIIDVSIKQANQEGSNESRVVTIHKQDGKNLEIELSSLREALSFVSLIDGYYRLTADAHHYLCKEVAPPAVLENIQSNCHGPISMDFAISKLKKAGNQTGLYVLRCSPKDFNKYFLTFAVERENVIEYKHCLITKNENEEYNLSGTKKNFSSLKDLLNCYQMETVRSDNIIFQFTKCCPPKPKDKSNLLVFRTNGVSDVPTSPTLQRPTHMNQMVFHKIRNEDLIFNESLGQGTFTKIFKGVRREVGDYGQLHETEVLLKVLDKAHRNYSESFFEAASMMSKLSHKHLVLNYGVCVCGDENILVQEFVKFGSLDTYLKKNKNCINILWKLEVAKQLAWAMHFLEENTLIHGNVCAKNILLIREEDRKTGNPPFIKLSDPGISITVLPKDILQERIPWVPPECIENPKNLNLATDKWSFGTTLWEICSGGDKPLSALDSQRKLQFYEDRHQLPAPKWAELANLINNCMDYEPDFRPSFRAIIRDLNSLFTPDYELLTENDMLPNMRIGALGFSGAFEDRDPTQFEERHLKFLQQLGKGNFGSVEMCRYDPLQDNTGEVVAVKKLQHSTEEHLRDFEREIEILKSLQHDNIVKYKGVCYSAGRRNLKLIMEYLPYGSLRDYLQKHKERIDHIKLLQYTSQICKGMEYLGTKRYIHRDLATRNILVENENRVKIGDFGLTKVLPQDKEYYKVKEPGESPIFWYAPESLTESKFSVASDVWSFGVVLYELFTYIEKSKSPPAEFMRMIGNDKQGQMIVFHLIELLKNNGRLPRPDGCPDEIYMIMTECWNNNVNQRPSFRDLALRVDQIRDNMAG

In the assay the target is T1, JAK2 (Homo sapiens, UniProt O60674).
T1 construct: purchased Carna Biosciences
Nature of the assay: JAK2 kinase activity, microfluidic assay (Caliper EZ Reader II). The assay is classed as biochemical. Conditions: JAK2 0.125 nM, 1 mM ATP. The procedure:
Testing for JAK1, JAK2 and TYK2 Kinase Activities
JAK activity was determined in the reaction buffer 50 mM HEPES, 0.01% Brij35, 10 mM MgCl2, 2 mM DTT by a microfluidic assay. The phosphorylation of a FAM labeled peptide substrate was monitored in the Caliper EZ Reader II (Perkin Elmer). The assay condition for each batch of enzyme (Carna Biosciences) was optimized to obtain 10% conversion rate of peptide substrate.
The test compounds were dissolved in DMSO to a stock concentration of 10 mM. Three-fold serially diluted compounds with top concentration of 5 μM were pre-incubated with JAK1, JAK2 or TYK2 for 10 min at ambient temperature. The final DMSO concentration of assay mixture was 1%. […] The reaction was stopped by adding 50 mM EDTA.
The percent inhibition was calculated by the following formula:
[formula] • wherein • Conversion %_max=the conversion rate in the positive well without addition of compound • Conversion %_sample=the conversion rate of test compounds • Conversion %_min=the conversion rate in the well without addition of enzyme
The dose-response (percent inhibition) curve was plotted and IC50 values were determined by GraphPad software.

In the case of `[2H]C([2H])([2H])NC(=O)c1nnc(NC(=O)C2CC2)cc1Nc1cccc(-c2ncn(C)n2)c1OC` [Example 41, 6-(Cyclopropanecarboxamido)-4-((2-methoxy-3-(1-methyl-1H-1,2,4-triazol-3-yl)phenyl)amino)-N-(methyl-d3)pyridazine-3-carboxamide], half-maximal inhibition (IC50) was put at 2480 nM.
